Relative growth data for 56 compounds are collected here from published antibiotic growth screens (doi:10.1038/s41589-023-01349-8).

The list shows a part of the results.

This assay relates to A. baumannii ATCC 17978. As to the kind of experiment: relative growth (fraction of control); higher = less inhibition. The settings on record: 50 µM.
For the compound `NNC(=O)C1CCCC1`, the relative growth came to 0.978.
`NNC(=O)c1ccc(C(=O)NO)cc1` returned a relative growth of 0.979.
Under `COC(=O)C1=CC(CCCO)=C[C@@H](c2cccs2)N(Cc2cccc(OC(F)(F)F)c2)C=C1C(=O)OC` stands 1.03; under `COC(=O)c1ccc(O)c(/C=N/N(CCO)C2=NS(=O)(=O)c3ccccc32)c1`, 1.03.
Consider `O=C(CN1CCOCC1)N[C@H]1CC[C@@H](CCNC(=O)C2CCC2)O[C@@H]1CO`, for which the relative growth amounted to 1.21.
Compound `CC(Cc1ccc(O)c(O)c1)C(C)Cc1ccc(O)c(O)c1` (stereo unspecified) yielded a relative growth of 0.972.
In the case of `CCOC(=O)CN1C(=O)c2ccccc2C1=O`, the relative growth is 1.06.
On to `O=C(O)Cc1cc(I)c(Oc2ccc(O)c(I)c2)c(I)c1`, for which the relative growth stood at 1.05.
For `CC(CCC(=O)O)[C@H]1CCC2C3CC[C@@H]4CCCC[C@]4(C)C3CC[C@@]21C` (stereo partly specified), the relative growth was 1.14.
`CCNC(=O)C[C@H]1CC[C@@H]2[C@H](COC[C@H](O)CN2S(=O)(=O)c2ccc(Oc3ccccc3)cc2)O1` had a relative growth of 0.933.
For `O=C(CN1CCOCC1)NCC[C@@H]1CC[C@@H](NC(=O)Nc2ccccc2)[C@@H](CO)O1` the value was 0.969.
For `COC(=O)CCCCCNc1n[nH]c(=O)[nH]c1=O` the value was 0.959; for `Fc1ccc(-c2n[nH]c(=S)o2)cc1`, 1.12.
Turning to `COc1ccccc1-c1ccc2c(c1)O[C@H](CN(C)S(=O)(=O)c1ccccc1)[C@H](C)CN([C@H](C)CO)S2(=O)=O`, the relative growth was 1.17.
Under `COc1c(C)cnc2c1c(=O)n(CC#N)c(=O)n2C` stands 0.896; under `COCC#Cc1ccc2c(c1)O[C@H](CN(C)C(=O)C1CCCCC1)[C@H](C)CN([C@H](C)CO)S2(=O)=O`, 1.09; under `COc1cc(C(C)=O)cc(OC)c1O`, 1.02.
For `CC(O)C(=O)[O-].[NH4+]` (stereo unspecified) the value was 0.802; for `C[C@@H]1CN([C@H](C)CO)C(=O)CCCn2nncc2CO[C@H]1CN(C)C(=O)Nc1ccc(N2CCCCC2)cc1`, 0.914.
For `C[C@H]1COC(=O)[C@@H](Cc2ccc(F)cc2)CC=CC[C@@H](CC(=O)N(CCO)Cc2ccccc2)C(=O)N1` the value was 0.772.
The compound `CO[C@@]1(NC(=O)Cc2cccs2)C(=O)N2C(C(=O)[O-])=C(COC(N)=O)CS[C@@H]21.[Na+]` registered a relative growth of 0.869.
Under `O=C([O-])C(O)[C@H](O)[C@H](O)[C@H](O)[C@H](O)CO.O=C([O-])C(O)[C@H](O)[C@H](O)[C@H](O)[C@H](O)CO.[Ca+2]` (stereo partly specified) stands 1.25; under `C[C@H](CO)N1C[C@H](C)[C@@H](CN(C)C(=O)NC2CCCC2)Oc2cc(-c3cncnc3)ccc2S1(=O)=O`, 1; under `O=C(CCCCC(=O)Nc1c(I)cc(I)c(C(=O)O)c1I)Nc1c(I)cc(I)c(C(=O)O)c1I`, 1.23.
`COc1nonc1NC(C)=O` displayed a relative growth of 0.968.
For `Cn1ncc2c(N3CCCC3)ncnc21` the value was 0.965.
`COc1cccc(NC(=O)N2C[C@@H](O)COC[C@H]3O[C@H](CC(=O)NCc4ccccc4F)CC[C@@H]32)c1`: the relative growth was determined as 0.968.
For `CC(=O)N(C)c1nc(N)n(-c2ccccc2)n1` the value was 0.901; for `CCN1OCN(c2nc(N(C)C)nc(N(C)C)n2)C1=N`, 0.955; for `Cl.Nc1ncnc(Nc2ccc(Cl)cc2)n1`, 1.14.
`CC(C)NC(=O)N(C)C[C@@H]1Oc2cc(C#Cc3ccc(F)cc3)ccc2S(=O)(=O)N([C@H](C)CO)C[C@H]1C` returned a relative growth of 0.867.
The compound `Cn1c(=O)c2[nH]c(-[n+]3ccc(C(=O)O)cc3)nc2n(C)c1=O` showed a relative growth of 1.02.
`CN(C)S(=O)(=O)N(C)c1ccccc1`: the relative growth amounted to 1.15.
Under `O=C(C[C@H]1CC[C@H]2[C@@H](COC[C@@H](O)CN2C(=O)Nc2ccc(Cl)cc2)O1)NCCc1ccncc1` stands 0.987.
Consider `CC(C)[C@H](N)C(=O)OCC(CO)OCn1cnc2c(=O)[nH]c(N)nc21.Cl` (stereo partly specified), for which the relative growth turned out to be 0.889.
Compound `CCOc1ccc2ccccc2c1C(=O)N[C@@H]1C(=O)N2C(C(=O)[O-])C(C)(C)S[C@H]12.[Na+]` (stereo partly specified) registered a relative growth of 0.418.
`COC(=O)C1=C2CC[C@H](COC(=O)NCCCCCC(=O)NO)NC(=O)N[C@@H](Cc3ccccc3)c3cn(nn3)C[C@@H](Cc3ccccc3)NC(=O)c3oc(c(C(=O)OC)c3C(=O)OC)CC[C@H](COC(=O)NCCCCCC(=O)NO)NC(=O)N[C@@H](Cc3ccccc3)c3cn(nn3)C[C@@H](Cc3ccccc3)NC(=O)C(=C1C(=O)OC)O2` gave a relative growth of 1.
Under `O=C(C[C@@H]1CC[C@@H](NS(=O)(=O)c2ccccc2F)[C@H](CO)O1)NCCCN1CCOCC1` stands 0.969; under `Cl.Cl.NCCSSCCN`, 1.04; under `CC(C)C[C@@H]1NC(=O)[C@@H]2C[C@H](C(=O)NCCCCCNC(=O)CS)[C@H](c3ccc(O)cc3)N2C1=O`, 0.923.
For `COc1cc2c(cc1OC)Cc1cc(OC)c(OC)cc1Cc1cc(OC)c(OC)cc1C2` the value was 0.974.
`CC(C)=CCC/C(C)=C\CC1=C(C)C(=O)c2ccccc2C1=O`: the relative growth is 1.05.
Under `O=C(N[C@H]1C=C[C@H](CC(=O)N2CCOCC2)O[C@H]1CO)c1ccccn1` stands 0.899; under `COCCc1ccc(OCC(O)CNC(C)C)cc1.O=C(O)C(O)C(O)C(=O)O` (stereo unspecified), 1.05; under `O=C(C[C@@H]1CC[C@@H]2[C@H](COC[C@H](O)CN2C(=O)Nc2ccc3c(c2)OCO3)O1)N1CCN(c2ccccc2)CC1`, 1.08.
For `NCC[C@H]1CC[C@@H](NC(=O)C2CC2)[C@@H](CO)O1` the value was 1.01; for `COC1C=CC23c4cc5c(cc4CN(C[C@H]2O)[C@@H]3C1)OCO5` (stereo partly specified), 1.13; for `CC(=O)OCCn1c(=O)[nH]c(=O)c2nsnc21`, 0.908.
`COCC#Cc1cnc2c(c1)C(=O)N([C@H](C)CO)C[C@H](C)[C@@H](CN(C)S(=O)(=O)c1cn(C)cn1)O2`: the relative growth worked out at 0.981.
For `COCC#Cc1ccc2c(c1)O[C@H](CN(C)C(=O)COC)[C@H](C)CN([C@@H](C)CO)S2(=O)=O` the value was 1.05; for `O=C(C[C@@H]1CC[C@@H]2[C@H](COC[C@H](O)CN2C(=O)c2cnccn2)O1)NCc1ccc(Oc2ccccc2)cc1`, 0.827.
For `CC(COc1ccccc1)N(CCCl)Cc1ccccc1.Cl` (stereo unspecified) the value was 0.927; for `Cc1oc(=O)oc1CN1CCN(c2cc3c(cc2F)c(=O)c(C(=O)O)c2n3C(C)S2)CC1` (stereo unspecified), 0.144.
In turn, `O=C(O)CCN1C(=O)[C@@H]2[C@@H](C1=O)[C@@H]1C=C[C@@H]2C1` gave a relative growth of 0.91.
Under `COCC(=O)Nc1ccc2c(c1)OC[C@@H](C)N(Cc1cccc(F)c1)C[C@@H](C)[C@@H](OC)CN(C)C2=O` stands 1.1; under `C[C@H](CO)N1C[C@H](C)[C@H](CN(C)Cc2cncnc2)Oc2cc(-c3ccccc3F)ccc2S1(=O)=O`, 0.914.
